# Tested on: histamine receptor
# Assay: Sleep-improving mechanism: pentobarbital sleep test with histamine receptor agonist PD
# Conditions: mouse, in vivo
substance,measurement,value
pyrilamine maleate salt [PMS],"effect of histamine receptor agonist PD on the sleep-improving effect (sleep latency, sleep duration)",completely inhibited by PD

# From patent publication US20150320823A1, “NOVEL USE OF RICE, RICE BRAN OR RICE HULL EXTRACT AS AN HISTAMINE RECEPTOR ANTAGONIST” (KOREA FOOD RESEARCH INSTITUTE, priority 2011, published 2015)
